Test [1] has as its target T1, full-length B-Catenin (Uniprot ID P35222) (Homo sapiens, UniProt P35222).
T1 construct: 10 nM full-length B-Catenin (Uniprot ID P35222)
Description: biochemical. It is filed as binding. To be noted: beta-Catenin FP IC50 (nM), competition fluorescence polarization. Background: Fluorescence polarisation rises when a labelled molecule tumbles more slowly, as on binding a larger partner.

By UniProt entry, the sequences of proteins in these tests, tags left out.
UniProt P35222, whole entry: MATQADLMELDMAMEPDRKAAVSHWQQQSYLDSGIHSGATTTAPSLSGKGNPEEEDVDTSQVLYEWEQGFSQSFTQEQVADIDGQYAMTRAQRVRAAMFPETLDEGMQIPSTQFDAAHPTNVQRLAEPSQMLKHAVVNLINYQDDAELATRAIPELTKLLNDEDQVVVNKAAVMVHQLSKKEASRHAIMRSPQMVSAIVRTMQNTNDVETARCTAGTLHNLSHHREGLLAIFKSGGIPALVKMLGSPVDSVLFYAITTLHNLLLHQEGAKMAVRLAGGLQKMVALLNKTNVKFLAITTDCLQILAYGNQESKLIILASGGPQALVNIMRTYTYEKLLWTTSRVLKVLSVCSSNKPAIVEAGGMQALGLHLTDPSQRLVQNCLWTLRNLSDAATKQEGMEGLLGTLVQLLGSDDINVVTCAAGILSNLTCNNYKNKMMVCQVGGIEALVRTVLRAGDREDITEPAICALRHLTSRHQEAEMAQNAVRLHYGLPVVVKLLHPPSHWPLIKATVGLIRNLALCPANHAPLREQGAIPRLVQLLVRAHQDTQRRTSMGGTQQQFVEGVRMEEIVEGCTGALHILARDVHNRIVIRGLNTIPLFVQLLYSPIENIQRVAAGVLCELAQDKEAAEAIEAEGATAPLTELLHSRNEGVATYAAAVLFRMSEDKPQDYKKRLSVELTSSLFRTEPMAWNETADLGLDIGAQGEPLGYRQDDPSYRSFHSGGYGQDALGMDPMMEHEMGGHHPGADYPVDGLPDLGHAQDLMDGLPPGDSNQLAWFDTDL

Test [2] addresses beta-catenin/TCF4 interaction (Homo sapiens, UniProt P35222). The test is described as follows: cell-based. Also on record: host or cells: HEK293. The note with it: NanoBRET Abs IC50 (uM). Background: BRET reads energy transfer from a luciferase to a nearby fluorophore.

Regarding `CC(=O)N1CCC[C@]12CC=CCCCC1(CCCC=CCCCOC(=O)N3CC[C@@]4(C3)NC(=O)[C@H](CCCCNC(=O)CC[C@@H](C(=O)N[C@H](C(=O)N[C@@H](CC(=O)O)C(=O)N[C@@H](CC(C)C)C(N)=O)C(C)C)NC(=O)[C@H](Cc3csc5ccccc35)NC(=O)[C@H](Cc3ccsc3)NC4=O)NC(=O)[C@H](Cc3ccccc3)NC(=O)[C@H](C)NC(=O)C(C)(C)NC(=O)[C@H](Cc3cccc(C(=O)O)c3)NC(=O)[C@H](CC(=O)O)NC1=O)NC(=O)[C@H](CC(C)(C)C)NC(=O)[C@H](CC(=O)O)NC2=O` (single isomer, unassigned) [I-512, Ac-PL3-Asp-Npg-B5-Asp-3COOHF-Aib-Ala-Phe-Lys*3-PyrS2-3Thi-BztA-GlnR*3-Val-Asp-Leu-NH2], the IC50 (commonly the concentration that gives 50% inhibition) in test [1] was less than 50 nM; in test [2] (absolute IC50), 3 to 10 µM.

For `CC(=O)N1CCC[C@]12CC=CCCCC1(CCCC=CCCCOC(=O)N3CC[C@@]4(C3)NC(=O)[C@H](CCCCNC(=O)CC[C@@H](C(=O)N[C@@H](C)C(N)=O)NC(=O)[C@H](Cc3csc5ccccc35)NC(=O)[C@H](Cc3ccsc3)NC4=O)NC(=O)[C@H](Cc3ccccc3)NC(=O)[C@H](C)NC(=O)C(C)(C)NC(=O)[C@H](Cc3cccc(C(=O)O)c3)NC(=O)[C@H](CC(=O)O)NC1=O)NC(=O)[C@H](CC(C)(C)C)NC(=O)[C@H](CCCC(=O)O)NC2=O` (single isomer, unassigned) [I-545, Ac-PL3-Aad-Npg-B5-Asp-3COOHF-Aib-Ala-Phe-Lys*3-PyrS2-3Thi-BztA-GlnR*3-Ala-NH2], the IC50 was 200 to 750 nM in test [1] and more than 10 µM in test [2] (absolute IC50).

As to `CC(=O)N1CCC[C@]12CC=CCCCC1(CCCC=CCCCOC(=O)N3CC[C@@]4(C3)NC(=O)[C@H](Cc3cn(nn3)CCCC[C@@H](C(N)=O)NC(=O)[C@H](Cc3csc5ccccc35)NC(=O)[C@H](Cc3ccsc3)NC4=O)NC(=O)[C@H](Cc3ccccc3)NC(=O)[C@H](C)NC(=O)[C@H](C)NC(=O)[C@H](CC(=O)O)NC(=O)[C@H](CC(=O)O)NC1=O)NC(=O)[C@H](CC(C)(C)C)NC(=O)[C@H](CC(=O)O)NC2=O` (stereo partly drawn) [I-23, Ac-PL3-Asp-Npg-B5-Asp-Asp-Ala-Ala-Phe-sAla*3-PyrS2-3Thi-BztA-TriAzLys*3-NH2], the IC50 in test [1] is less than 50 nM; in test [2], 3 to 10 µM.

Consider `CC(=O)N1CCC[C@]12CC=CCCCC1(CCCC=CCCCOC(=O)N3CC[C@@]4(C3)NC(=O)[C@H](Cc3cn(nn3)CCCC[C@@H](C(N)=O)NC(=O)[C@H](Cc3csc5ccccc35)NC(=O)[C@H](Cc3ccsc3)NC4=O)NC(=O)[C@H](Cc3ccccc3)NC(=O)[C@H](C)NC(=O)[C@H](C)NC(=O)[C@H](Cc3cccc(C(=O)O)c3)NC(=O)[C@H](CC(=O)O)NC1=O)NC(=O)[C@H](CC(C)(C)C)NC(=O)[C@H](CC(=O)O)NC2=O` (stereo partly drawn) [I-24, Ac-PL3-Asp-Npg-B5-Asp-3COOHF-Ala-Ala-Phe-sAla*3-PyrS2-3Thi-BztA-TriAzLys*3-NH2], for which the IC50 in test [1] is less than 50 nM; in test [2], 3 to 10 µM.

For `CC(=O)N1CCC[C@]12CC=CCCCC1(CCCC=CCCCOC(=O)N3CC[C@@]4(C3)NC(=O)[C@H](Cc3cn(nn3)CCCC[C@@H](C(N)=O)NC(=O)[C@H](Cc3csc5ccccc35)NC(=O)[C@H](Cc3ccccc3C(F)(F)F)NC4=O)NC(=O)[C@H](Cc3ccccc3)NC(=O)[C@H](C)NC(=O)[C@H](C)NC(=O)[C@H](Cc3cccc(C(=O)O)c3)NC(=O)[C@H](CC(=O)O)NC1=O)NC(=O)[C@H](CC(C)(C)C)NC(=O)[C@H](CC(=O)O)NC2=O` (stereo partly drawn) [I-25, Ac-PL3-Asp-Npg-B5-Asp-3COOHF-Ala-Ala-Phe-sAla*3-PyrS2-2F3MeF-BztA-TriAzLys*3-NH2], the half-inhibitory concentration (IC50) in test [1] was less than 50 nM; in test [2] it was 3 to 10 µM.

With `CC(=O)N1CCC[C@]12CC=CCCCC1(CCCC=CCCCOC(=O)N3CC[C@@](C(=O)N[C@@H](Cc4ccsc4)C(=O)N[C@@H](Cc4csc5ccccc45)C(=O)N[C@@H](CCC(N)=O)C(N)=O)(C3)NC(=O)[C@@H]3Cc4cn(nn4)CCCC[C@H](NC(=O)[C@H](CC(=O)O)NC(=O)[C@H](CC(=O)O)NC1=O)C(=O)N[C@@H](C)C(=O)N[C@@H](Cc1ccccc1)C(=O)N3)NC(=O)[C@H](CC(C)(C)C)NC(=O)[C@H](CC(=O)O)NC2=O` (stereo partly drawn) [I-29, Ac-PL3-Asp-Npg-B5-Asp-Asp-TriAzLys*3-Ala-Phe-sAla*3-PyrS2-3Thi-BztA-Gln-NH2], the values for the 50% inhibitory concentration (IC50) in test [1] and in test [2] were less than 50 nM and more than 10 µM, respectively.

Consider `CC(=O)N1CCC[C@]12CC=CCCCC1(CCCC=CCCCOC(=O)N3CC[C@@](C(=O)N[C@@H](Cc4ccsc4)C(=O)N[C@@H](Cc4csc5ccccc45)C(=O)N[C@@H](CCC(N)=O)C(N)=O)(C3)NC(=O)[C@@H]3Cc4cn(nn4)CCCC[C@H](NC(=O)[C@H](Cc4cccc(C(=O)O)c4)NC(=O)[C@H](CC(=O)O)NC1=O)C(=O)N[C@@H](C)C(=O)N[C@@H](Cc1ccccc1)C(=O)N3)NC(=O)[C@H](CC(C)(C)C)NC(=O)[C@H](CC(=O)O)NC2=O` (stereo partly drawn) [I-30, Ac-PL3-Asp-Npg-B5-Asp-3COOHF-TriAzLys*3-Ala-Phe-sAla*3-PyrS2-3Thi-BztA-Gln-NH2], for which the IC50 in test [1] is less than 50 nM; in test [2], more than 10 µM.

Take `CC(=O)N1CCC[C@]12CC=CCCCC1(CCCC=CCCCOC(=O)N3CC[C@@](C(=O)N[C@@H](Cc4ccccc4C(F)(F)F)C(=O)N[C@@H](Cc4csc5ccccc45)C(=O)N[C@@H](CCC(N)=O)C(N)=O)(C3)NC(=O)[C@@H]3Cc4cn(nn4)CCCC[C@H](NC(=O)[C@H](Cc4cccc(C(=O)O)c4)NC(=O)[C@H](CC(=O)O)NC1=O)C(=O)N[C@@H](C)C(=O)N[C@@H](Cc1ccccc1)C(=O)N3)NC(=O)[C@H](CC(C)(C)C)NC(=O)[C@H](CC(=O)O)NC2=O` (stereo partly drawn) [I-31, Ac-PL3-Asp-Npg-B5-Asp-3COOHF-TriAzLys*3-Ala-Phe-sAla*3-PyrS2-2F3MeF-BztA-Gln-NH2]: the values for the concentration for half-maximal inhibition (IC50) in test [1] and in test [2] were less than 50 nM and more than 10 µM, respectively.

`CC(=O)N1CCC[C@]12CC=CCCCC1(CCCC=CCCCOC(=O)N3CC[C@@]4(C3)NC(=O)[C@H](Cc3cn(nn3)CCCC[C@@H](C(=O)N[C@@H](C)C(N)=O)NC(=O)[C@H](Cc3csc5ccccc35)NC(=O)[C@H](Cc3ccsc3)NC4=O)NC(=O)[C@H](Cc3ccccc3)NC(=O)[C@H](C)NC(=O)C(C)(C)NC(=O)[C@H](Cc3cccc(C(=O)O)c3)NC(=O)[C@H](CC(=O)O)NC1=O)NC(=O)[C@H](CC(C)(C)C)NC(=O)[C@H](CC(=O)O)NC2=O` (stereo partly drawn) [I-336, Ac-PL3-Asp-Npg-B5-Asp-3COOHF-Aib-Ala-Phe-sAla*3-PyrS2-3Thi-BztA-TriAzLys*3-Ala-NH2]: the 50% inhibitory concentration (IC50) was less than 50 nM in test [1] and 1.5 to 3 µM in test [2] (absolute IC50).

Consider `CC(=O)N1CCC[C@]12CC=CCCCC1(CCCC=CCCCOC(=O)N3CC[C@@]4(C3)NC(=O)[C@H](CCCCn3cc(nn3)C[C@@H](C(=O)N[C@@H](C)C(N)=O)NC(=O)[C@H](Cc3csc5ccccc35)NC(=O)[C@H](Cc3ccsc3)NC4=O)NC(=O)[C@H](Cc3ccccc3)NC(=O)[C@H](C)NC(=O)[C@H](C)NC(=O)[C@H](Cc3cccc(C(=O)O)c3)NC(=O)[C@H](CC(=O)O)NC1=O)NC(=O)[C@H](CC(C)(C)C)NC(=O)[C@H](CC(=O)O)NC2=O` (stereo partly drawn) [I-337, Ac-PL3-Asp-Npg-B5-Asp-3COOHF-Ala-Ala-Phe-TriAzLys*3-PyrS2-3Thi-BztA-sAla*3-Ala-NH2], for which the IC50 in test [1] was less than 50 nM; in test [2] (absolute IC50), 1.5 to 3 µM.

In the case of `CC(=O)N1CCC[C@]12CC=CCCCC1(CCCC=CCCCOC(=O)N3CC[C@@]4(C3)NC(=O)[C@H](Cc3cn(nn3)CCCC[C@@H](C(=O)N[C@@H](C)C(N)=O)NC(=O)[C@H](Cc3csc5ccccc35)NC(=O)[C@H](Cc3ccsc3)NC4=O)NC(=O)[C@H](Cc3ccccc3)NC(=O)[C@H](C)NC(=O)[C@H](C)NC(=O)[C@H](Cc3cccc(C(=O)O)c3)NC(=O)[C@H](CC(=O)O)NC1=O)NC(=O)[C@H](CC(C)(C)C)NC(=O)[C@H](CC(=O)O)NC2=O` (stereo partly drawn) [I-338, Ac-PL3-Asp-Npg-B5-Asp-3COOHF-Ala-Ala-Phe-sAla*3-PyrS2-3Thi-BztA-TriAzLys*3-Ala-NH2], the IC50 in test [1] was less than 50 nM; in test [2] (absolute IC50), 3 to 10 µM.

Consider `CC(=O)N1CCC[C@]12CC=CCCCC1(CCCC=CCCCOC(=O)N3CC[C@@]4(C3)NC(=O)[C@H](CCCCn3cc(nn3)C[C@@H](C(=O)N[C@H](C(N)=O)C(C)C)NC(=O)[C@H](Cc3csc5ccccc35)NC(=O)[C@H](Cc3ccsc3)NC4=O)NC(=O)[C@H](Cc3ccccc3)NC(=O)[C@H](C)NC(=O)C(C)(C)NC(=O)[C@H](Cc3cccc(C(=O)O)c3)NC(=O)[C@H](CC(=O)O)NC1=O)NC(=O)[C@H](CC(C)(C)C)NC(=O)[C@H](CC(=O)O)NC2=O` (stereo partly drawn) [I-413, Ac-PL3-Asp-Npg-B5-Asp-3COOHF-Aib-Ala-Phe-TriAzLys*3-PyrS2-3Thi-BztA-sAla*3-Val-NH2], for which the IC50 was less than 50 nM in test [1] and less than 1.5 µM in test [2] (absolute IC50).

With `CC(=O)N1CCC[C@]12CC=CCCCC1(CCCC=CCCCOC(=O)N3CC[C@@]4(C3)NC(=O)[C@H](CCCCn3cc(nn3)C[C@@H](C(=O)N[C@@H](CC(C)C)C(N)=O)NC(=O)[C@H](Cc3csc5ccccc35)NC(=O)[C@H](Cc3ccsc3)NC4=O)NC(=O)[C@H](Cc3ccccc3)NC(=O)[C@H](C)NC(=O)C(C)(C)NC(=O)[C@H](Cc3cccc(C(=O)O)c3)NC(=O)[C@H](CC(=O)O)NC1=O)NC(=O)[C@H](CC(C)(C)C)NC(=O)[C@H](CC(=O)O)NC2=O` (stereo partly drawn) [I-414, Ac-PL3-Asp-Npg-B5-Asp-3COOHF-Aib-Ala-Phe-TriAzLys*3-PyrS2-3Thi-BztA-sAla*3-Leu-NH2], the IC50 in test [1] is less than 50 nM; in test [2] (absolute IC50), less than 1.5 µM.

Regarding `CC(=O)N1CCC[C@]12CC=CCCCC1(CCCC=CCCCOC(=O)N3CC[C@@]4(C3)NC(=O)[C@H](CCCCn3cc(nn3)C[C@@H](C(=O)N[C@H](C(N)=O)[C@@H](C)O)NC(=O)[C@H](Cc3csc5ccccc35)NC(=O)[C@H](Cc3ccsc3)NC4=O)NC(=O)[C@H](Cc3ccccc3)NC(=O)[C@H](C)NC(=O)C(C)(C)NC(=O)[C@H](Cc3cccc(C(=O)O)c3)NC(=O)[C@H](CC(=O)O)NC1=O)NC(=O)[C@H](CC(C)(C)C)NC(=O)[C@H](CC(=O)O)NC2=O` (stereo partly drawn) [I-415, Ac-PL3-Asp-Npg-B5-Asp-3COOHF-Aib-Ala-Phe-TriAzLys*3-PyrS2-3Thi-BztA-sAla*3-Thr-NH2], the IC50 in test [1] is less than 50 nM; in test [2] (absolute IC50), less than 1.5 µM.

The record behind these values is patent publication US20240360179A1, “STAPLED PEPTIDES AND METHODS THEREOF” (FOG PHARMACEUTICALS, INC., priority 2021, published 2024).
